# Antibody variant affinities, Ab-14 heavy chain, assay 1

Target peptide (SARS-CoV-2 spike, HR2 region): PDVDLGDISGINAS

Each scFv is VH, a (GGGGS)3 linker, VL, as in the parent Ab-14, and differs from it in the CDRs of the heavy chain only.
VH: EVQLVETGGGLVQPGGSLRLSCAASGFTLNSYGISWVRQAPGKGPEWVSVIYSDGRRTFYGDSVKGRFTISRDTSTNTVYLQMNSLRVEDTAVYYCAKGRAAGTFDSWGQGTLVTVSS
VL: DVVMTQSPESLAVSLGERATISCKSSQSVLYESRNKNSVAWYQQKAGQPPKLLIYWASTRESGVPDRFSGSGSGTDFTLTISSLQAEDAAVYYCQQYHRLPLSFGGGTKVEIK

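The starting antibody came from a phage panning campaign against this peptide. Library AAYL49 holds single substitutions and randomly drawn double and triple substitutions in the CDRs. In AlphaSeq, yeast of one mating type display the scFv and yeast of the other type display the target. After mating in shaken culture at 30 °C for 16 h, diploids were selected and their barcode pairs sequenced. A regression on co-assayed BCL2-family reference pairs converts the normalised counts of each replicate to an apparent Kd. There are three technical replicates.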

The parent's heavy chain CDRs are GFTLNSYGIS, VIYSDGRRTFYGDSVK, GRAAGTFDS; each variant's own CDRs replace them letter for letter. Values are log10 of the apparent Kd in nM; lower means stronger binding. A mean of the replicates is given; it leaves out those without a signal. "ND" means that the variant was in the library but no mating with the target was seen in that replicate; the authors take this as a sign of poor binding, and no number exists. Three control strains display no target. For library AAYL49, 15% of the pairings with them gave a signal, with a median of 4.06 and one signal in twenty below 2.83, so weak values seen in few replicates may be background. The control count says in how many pairings with the empty strains this scFv gave a signal, with their mean in brackets.

| CDR-H1 | CDR-H2 | CDR-H3 | log10 Kd (nM) by replicate | mean log10 Kd (nM) | empty controls |
|---|---|---|---|---|---|
| GFTLNSYGIS | VIYSDGRRTFYGDEFK | SRAAGTFDS | 1.49 1.65 2.10 | 1.75 | 2 of 9 (3.40) |
| GFTLNSYGIS | VIYSDGRRTFYVDSVK | GTAAGTFDS | 0.27 0.32 0.01 | 0.20 | 3 of 9 (5.09) |
| GFTLNSYGIS | VILSDGRRTFYGWSPK | GRAAGTFDS | ND ND ND | ND | 1 of 9 (3.43) |
| GNTLNSYGIS | VIYSDGRRTFYPDSVK | GRAAGTFYS | ND ND ND | ND | 2 of 9 (3.13) |
| GFTLNSYGIS | WIYSDGRRTNYGDSWK | GRAAGTFDS | ND 3.01 ND | 3.01 | 0 of 9 |
| GFCLNIYVIS | VIYSDGRRTFYGDSVK | GRAAGTFDS | ND ND ND | ND | 1 of 9 (2.85) |
| GFTLNSYGIS | VIYSDGRPTFYGDSVK | DRAAGTFDS | ND ND ND | ND | 0 of 9 |
| GFTGNSYGIS | VIGSDGRRTFYGISVK | GRAAGTFDS | ND ND 4.41 | 4.41 | 1 of 9 (4.80) |
| GFPLNSYGII | VIYSDGRRTFYGDSVK | GRSAGTFDS | ND ND ND | ND | 0 of 9 |
| GFTLNSSGIS | VIYSDCRRTFYGDSVY | GRAAGTFDS | ND 3.52 ND | 3.52 | 1 of 9 (5.02) |
| GTPLNSYGIS | VIYSDGRRTFYGPSVK | GRAAGTFDS | 2.54 2.18 2.90 | 2.54 | 0 of 9 |
| GFTLNSYGIS | VIYSDGRRTFYIKKVK | GRAAGTFDS | ND ND ND | ND | 1 of 9 (2.53) |
| DFTLNSYGIS | KIYSDPRRTFYGDSVK | GRAAGTFDS | 4.27 ND ND | 4.27 | 0 of 9 |
| GSTLNSYGIS | VIYSDGRRTFYGDSVE | GRAAGTFLS | ND 3.15 ND | 3.15 | 5 of 9 (3.86) |
| GFTLNSYGIS | IWYSDGRRTFYGDSVY | GRAAGTFDS | ND ND ND | ND | 0 of 9 |
| GFTLSSFTIS | VIYSDGRRTFYGDSVK | GRAAGTFDS | ND ND ND | ND | 2 of 9 (4.18) |
| GFTLNSYGIS | VIYSDKRRTAYGDSVK | GRAGGTFDS | 3.36 4.21 ND | 3.79 | 5 of 9 (4.32) |
| GFTLNSYGIS | VIYSDGRRTFYGDSVK | GRAADTFDS | ND ND ND | ND | 1 of 9 (4.34) |
| CFTLNSYGIS | VIYSDGRRTFGGDSVK | GRAAGTFDH | ND ND ND | ND | 1 of 9 (4.46) |
| GFTLNSYGIS | VIYSEGRHTFYGDSVK | GRAAGTFDN | ND 3.17 ND | 3.17 | 0 of 9 |
| GFTLNSYGIS | VIYSTGRITFYGDSVK | GRAAGTFTS | 3.45 ND ND | 3.45 | 1 of 9 (3.30) |
| GFTLNSYGIS | VIYSDGRREFYGFSVD | GRAAGTFDS | 4.14 3.34 4.09 | 3.86 | 8 of 9 (4.86) |
| GHTLNSYGIS | VIYSDGRATFYGDSVK | GRAAGTFDS | 3.96 3.96 ND | 3.96 | 3 of 9 (3.78) |
| GKTLNSYGIS | VIQSDGRRTFYGDSVK | GRAAGTVDS | 6.17 ND ND | 6.17 | 2 of 9 (4.48) |
| GFTLNSYGIS | KIYSDGRRTFCDDSVK | GRAAGTFDS | ND ND ND | ND | 1 of 9 (4.23) |
| GFTLNSYNIS | VIYSDGRRTFYGDSVK | GVTAGTFDS | 4.89 2.94 ND | 3.91 | 5 of 9 (3.59) |
| GFTLNTYGIM | VIYKDGRRTFYGDSVK | GRAAGTFDS | ND 5.14 ND | 5.14 | 2 of 9 (4.39) |
| GFTLNSYGIS | VITSDGRRTFYGDSVK | GRAAGTHDG | ND ND ND | ND | 0 of 9 |
| GFTLNSYGIV | VIYSCGRRTYYGDSVK | GRAAGTFDS | ND 5.01 ND | 5.01 | 2 of 9 (3.82) |
| GFTLNLYGIS | VIYSEGRRTFYGDSVK | GRACGTFDS | ND ND ND | ND | 0 of 9 |
| GFTLNEYGIS | VMYSDGRRTFYGDSVK | YRAAGTFDS | 1.92 2.11 2.21 | 2.08 | 3 of 9 (4.30) |
| GFTLNSYGIS | VIYSDGRRTFYGDSVK | GRAAGTFDD | 4.61 2.77 ND | 3.69 | 1 of 9 (4.24) |
| GFTLISYGIS | GIYSPGRRTFYGDSVK | GRAAGTFDS | 4.34 ND ND | 4.34 | 0 of 9 |
| GFTHNSYRIS | VIYSDGRRTFYGGSVK | GRAAGTFDS | 3.68 ND ND | 3.68 | 4 of 9 (4.34) |

The 4 strongest on average among those seen in every replicate, once more:

| CDR-H1 | CDR-H2 | CDR-H3 | log10 Kd (nM) by replicate | mean log10 Kd (nM) | empty controls |
|---|---|---|---|---|---|
| GFTLNSYGIS | VIYSDGRRTFYVDSVK | GTAAGTFDS | 0.27 0.32 0.01 | 0.20 | 3 of 9 (5.09) |
| GFTLNSYGIS | VIYSDGRRTFYGDEFK | SRAAGTFDS | 1.49 1.65 2.10 | 1.75 | 2 of 9 (3.40) |
| GFTLNEYGIS | VMYSDGRRTFYGDSVK | YRAAGTFDS | 1.92 2.11 2.21 | 2.08 | 3 of 9 (4.30) |
| GTPLNSYGIS | VIYSDGRRTFYGPSVK | GRAAGTFDS | 2.54 2.18 2.90 | 2.54 | 0 of 9 |

Parent in this assay: reference entry 0.65, copy in this library 4.11 (one replicate of three).

Values reported by Engelhart et al. 2022, doi:10.1038/s41597-022-01779-4 (FLAb copy).